We go through one substance from publication PMC3679298.

The target of the test is HLA-C*03:04 tetramer refolded with the peptide …. Nature of the test: SPR.

In the case of “soluble KIR2DL3*002 Fc fusion protein (sKIR2DL3*002) (from UniProt P43628 22-245)”, the peak resonance units (RU) was determined as 4 RU.
